Data on 1 compound can be found in ChEMBL document CHEMBL3352468, “Synthesis and receptor binding in trans-CD ring-fused A-CD estrogens: comparison with the cis-fused isomers” (Bioorg Med Chem Lett, 2014).

Sequences of proteins named here, by UniProt entry; tags and fusion partners are left off.
UniProt Q92731, whole entry: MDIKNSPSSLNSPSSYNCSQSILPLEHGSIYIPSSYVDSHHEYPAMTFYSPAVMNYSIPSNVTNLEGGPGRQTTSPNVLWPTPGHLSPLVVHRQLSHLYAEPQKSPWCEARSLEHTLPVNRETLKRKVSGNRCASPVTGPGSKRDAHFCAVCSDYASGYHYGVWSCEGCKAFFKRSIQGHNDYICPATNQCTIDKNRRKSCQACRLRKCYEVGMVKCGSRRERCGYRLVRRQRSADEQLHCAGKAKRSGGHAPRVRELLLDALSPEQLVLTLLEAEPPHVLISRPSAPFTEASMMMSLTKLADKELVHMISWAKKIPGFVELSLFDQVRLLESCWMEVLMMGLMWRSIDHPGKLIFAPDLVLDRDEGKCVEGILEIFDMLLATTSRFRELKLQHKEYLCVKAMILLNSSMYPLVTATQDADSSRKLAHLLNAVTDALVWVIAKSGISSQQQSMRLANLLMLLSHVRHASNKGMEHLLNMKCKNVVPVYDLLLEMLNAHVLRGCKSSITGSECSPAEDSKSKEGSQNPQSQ

In this experiment the target is Estrogen receptor beta (Homo sapiens) (UniProt Q92731). Nature of the experiment: Binding affinity to ERbeta (unknown origin) relative to estradiol.

On to `C[C@]12CC[C@H](c3ccc(O)cc3C(F)(F)F)C[C@H]1CC[C@@H]2O`, for which the relative binding affinity (RBA) amounted to 205.
